According to patent publication US5416090A, “Method of treating inflammation” (priority 1992, dated 1995):
Entries after “also recorded” stand apart in the source; their conditions may differ.

Tests used:
[1] = system: graft versus host response (splenomegaly); set-up: species or system mouse (B6C3F1); conditions: mouse, in vivo
[2] = system: delayed type hypersensitivity (picryl chloride induced foot pad swelling); test: Murine delayed type hypersensitivity (DTH) response, picryl chloride; set-up: species or system mouse (Balb/c); conditions: mouse, in vivo
Method: The activity of ergoline compounds was also evaluated in a murine delayed-type hypersensitivity (DTH) assay. The DTH assay was performed in substantial accordance with the method set forth in Example 1. Briefly, mice were sensitized by topical administration of picryl chloride on day 1 of the assay. On day 4 paw size was determined and recorded and the paw was then challenged with picryl chloride. The challenged paw was remeasured on day 5 to quantitate the DTH response via the increase in paw size.
Male Balb/c mice (Charles River) weighing 20 to 25 g were used in all DTH studies. When adrenalectomized studies were carried out, sham surgery and adrenalectomized mice were obtained from the vendor. Animals were maintained on a 12:12 hour light:dark cycle. Mice were allowed ad lib access for food (Purina lab chow) and water (normal saline for adrenalectomized animals).
A DTH response was assessed by measuring the degree of rear foot pad swelling induced by picryl chloride. […] On day 3, mice were anesthetized with methoxyflurane, and the baseline rear foot pad thickness was measured with a micrometer (Mitutoyo) in μ, and was recorded in duplicate. […] Twenty-four hours later, the mice were sacrificed by CO2 asphyxiation and each rear foot pad was again measured in duplicate, and any evidence of foot pad swelling was calculated. […]

CCCN1CCC[C@H]2Cc3[nH]ncc3C[C@@H]21 (racemic) [Compound 5, trans-(±)-5-n-propyl-4,4a,5,6,7,8,8a,9-octahydro-1H-pyrazolo[3,4-g] quinoline]
immunosuppressive activity / effect on GVH splenomegaly [1]: no immunosuppressive activity; also recorded: Lack of effect
reduction of paw swelling (DTH) [2]: significantly reduced paw swelling
